Measurements as given in patent US20260250410A1, “ANTIBODY AND USE THEREOF” (SICHUAN HUIYU PHARMACEUTICAL CO., LTD., priority 2022, published 2026).

B1: SB14: anti-CDCP1 antibody by single B cell technique; VH SEQ ID NO: 284, VL SEQ ID NO: 334 (antibody, V domains shown)
VH: QVQLQQSGNEVVKPGASVKLSCKTSGYTFTNYWLQWVKQRPGQGLEWIGEIFPGTGTTYYNEKFKDQATVTIDTSSSTAYIHLSSLTSEDSAVYFCARTNWEGYYFDYWGQGTTLTVSS
VL: ENVLTQSPAIMSASSGEKVTMTCRASSSVRSSYLHWYQQKSGASPKVWIYSTSNLASGVPVRFSGSGSGTSYSLTISSVEAEDAATYYCQQYSGSPSWTFGGGTKLEIK
modifications: SB14 heavy chain variable region; SB14 light chain variable region
B2: SB11: anti-CDCP1 antibody by single B cell technique; VH SEQ ID NO: 281, VL SEQ ID NO: 331 (antibody, V domains shown)
VH: EVQLQQSGAELVKPGASVKLSCTASGFNIQDTYILWVKQRPEQGLEWIGGIDPANDNTNYGPNFQGKATITADTSSNTAYLQLSSLTSEDSAVYYCAREDAYPWFAYWGQGTLVTVSS
VL: DIVLTQSPASLAVSLGQRATISCRASQSVSTSSYSYMHWYQLKPGQPPKLLIKYASNLESGVPARFSGSGSGTDFTLNIHPVEEEDAAIYYCQHNWEIPWTFGGGTRLEIK
modifications: SB11 heavy chain variable region; SB11 light chain variable region
B3: SB18: anti-CDCP1 antibody by single B cell technique; VH SEQ ID NO: 288, VL SEQ ID NO: 338 (antibody, V domains shown)
VH: QVTLKESGPGILQPSQTLSLTCSFSGFSLTTSGMNVGWLRQPSGKGLEWLAHIWWNDDKHSNPVLKSRLTISKDTSNNQAFLKIANVVTADSATYYCARLRDGGFAYWGQGTLVTVSA
VL: DIQMTQTTSSLSASLGDRVTISCSASQAISNYLNWYQQKPDGTVKLLIYYTSHLHSGVPSRFSGSGSGTDYSLTISNLEPEDIATYYCQQYSKIPWTFGGGTKLEII
modifications: SB18 heavy chain variable region; SB18 light chain variable region
B4: SB10: anti-CDCP1 antibody by single B cell technique; VH SEQ ID NO: 280, VL SEQ ID NO: 330 (antibody, V domains shown)
VH: QVTLKESGPGILQPSQTLSLTCSFSGFSLSTSGMGVSWFRQPSGKGLEWLAHIYWDDDKRYNPSLKSRLTISKDTSSNQVFLRITNVDTSDTATYYCTREGSADWEALDYWGQGTSVTVSS
VL: DVLMTQTPLSLSVSLGDQASISCRSSQTIVYSNGNSYLEWYLQKPGQSPKLLIYKVSNRFSGIPDRFSGSGSGTDFTLKISRVEAEDLGIYYCFQSSHVPWTFGGGTKLEIK
modifications: SB10 heavy chain variable region; SB10 light chain variable region
B5: SB13: anti-CDCP1 antibody by single B cell technique; VH SEQ ID NO: 283, VL SEQ ID NO: 333 (antibody, V domains shown)
VH: EVKLVESGGGLVQPGGSLRLSCATSGFTFSDFYMEWVRQPPGKRLEWIAVSRDKTNDYTTEYSASMKGRFIVSRDTSQSILYLQMNALRAEDTAIYYCARDGVYYYGSSYTLDYWGQGTSVTVSS
VL: DIVMTQSHKFMSTSVGDRVSITCKASQDVSSSVAWYQQKPGQSPKLLIYWASTRHTGVPDRFTGSGSGTDYTLTISSVQAEDLALYYCQQHYNTPPTFGGGTKLEIK
modifications: SB13 heavy chain variable region; SB13 light chain variable region
B6: SB15: anti-CDCP1 antibody by single B cell technique; VH SEQ ID NO: 285, VL SEQ ID NO: 335 (antibody, V domains shown)
VH: EVKLVESGGGLVKPGGSLKLSCAASGFTFSSYGMSWVRQTPEKRLEWVATISGGINYTYYRDSVEGRFTISRDNAKNNLYLQMSRLRSEDTALYYCARHDRYDGYYYVMDYWGQGTSVTVSS
VL: DIQMTQSPSSLSASLGERVSLTCRASQEISGYLTWLQQRPDGTIKRLIYAASTLDSGVPKRFSGSRSGSDYSLTISSLESEDFADYYCLQYASYPYTFGGGTKLEIK
modifications: SB15 heavy chain variable region; SB15 light chain variable region
B7: SB17: anti-CDCP1 antibody by single B cell technique; VH SEQ ID NO: 287, VL SEQ ID NO: 337 (antibody, V domains shown)
VH: QVTLKESGPGILQPSQTLSLTCSFSGFSLSTSGMSVGWIRQPSGKGLEWLAHIWWNDDKYYNPALKTRLTISKDSSNNQIFLKIASVVTADSATYYCARIGYYYGTYALDYWGPGTSVTVSS
VL: QIVLTQSPALMTASPGEQVTMTCSASSSVSYIHWYQQKSGTSPKRWIYDASKLASGVPARFSGSGSGTSYSLTISSMEAEDAATYYCQQWSSYPLTFGGGTKLELK
modifications: SB17 heavy chain variable region; SB17 light chain variable region

Test system: MDA-MB-231 cells
Assay: Endocytosis capacity of single B cell antibodies
Format: cell-based, human
Conditions: MDA-MB-231, 2 h at 37° C., antibody 1.5 μg/mL
Experimental: The endocytosis capacity of the antibody was detected for 0.5 to 2 hours. MDA-MB-231 cells were subjected to digestion with 5 mM EDTA, and plated at 2×10^4 cells/well after cell counting. After adding an Fc blocker (Human TruStain FcX™, Biolegend, 422302) and blocking at room temperature for 10 mins, a test antibody (1.5 μg/mL) was added, and the mixture was incubated at 4° C. for 30 mins, centrifuged, and washed twice with PBS+2% FBS, then the cells were divided into four equal portions (labeled as 0 h, 0.5 h, 1 h, 2 h), cells labeled as 0.5 h, 1 h, 2 h time points were added to 200 μL of cell culture medium, and cultured at 37° C. for 0.5 h, 1 h, 2 h, respectively. Cells at 0 h point were centrifuged, a secondary antibody (PE anti-human IgG Fc Antibody, Biolegend, 410708) was added, and the mixture was incubated at 4° C. for 30 mins, centrifuged, and washed twice with PBS+2% FBS, and detection was performed using a flow cytometer. After incubation of cells labeled as 0.5 h, 1 h, and 2 h points at 37° C. was completed, a secondary antibody was added (in the same steps as those at 0 h point), Geo-MFI of the signal under the same voltage was collected as detection signal at 0 h, and antibody internalization rate was calculated according to the following equation: Internalization (%)=(Geo-MFI (0 h)-Geo-MFI (2 h))/Geo-MFI (0 h)×100%.

| Molecule | Internalization MDA-MB-231 (%) |
| --- | --- |
| B1 | 80.03% |
| B2 | 18.52% |
| B3 | 38.83% |
| B4 | 87.72% |
| B5 | 50.12% |
| B6 | 80.12% |
| B7 | 80.07% |
